Source: US20060287347A1, “Methods for treating smooth muscle disorders using trospium” (priority 2005, published 2006)

Sequences of proteins named here, by UniProt entry; tags and fusion partners are left off. A change or cut given only in a name is not applied to a line headed by its entry.
UniProt P11229: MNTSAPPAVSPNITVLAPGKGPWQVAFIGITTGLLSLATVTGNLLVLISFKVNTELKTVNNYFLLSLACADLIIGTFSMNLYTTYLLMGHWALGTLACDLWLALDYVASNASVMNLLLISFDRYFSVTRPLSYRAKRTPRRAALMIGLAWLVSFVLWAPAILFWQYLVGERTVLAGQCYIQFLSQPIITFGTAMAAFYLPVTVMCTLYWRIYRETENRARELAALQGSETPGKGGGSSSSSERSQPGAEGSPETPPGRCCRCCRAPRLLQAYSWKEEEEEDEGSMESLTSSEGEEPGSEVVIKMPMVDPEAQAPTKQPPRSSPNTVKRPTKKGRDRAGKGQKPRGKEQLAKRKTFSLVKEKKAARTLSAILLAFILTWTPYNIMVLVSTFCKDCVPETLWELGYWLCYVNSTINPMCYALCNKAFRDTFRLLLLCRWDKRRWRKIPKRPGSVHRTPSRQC

Molecular target: human recombinant muscarinic receptor M-1 (Homo sapiens, UniProt P11229)
Test: biochemical
Assay type: binding
Conditions: membranes from SF9 cells, radioligand 3H scopolamine methylchloride; read-out: Affinity (negative logarithm of the dissociation constant Ki), M-1 (converted)

Ki: 5.01 nM
Structure (SMILES): NC(=O)C(c1ccccc1)(c1ccccc1)[C@@H]1CCN(CCc2ccc3c(c2)CCO3)C1 [Darifenacin]
